Earlier results on 2 compounds are cited in US20070208041A1, “Compositions for the treatment and prevention of heart disease and methods of using same” (priority 2005, published 2007).

This is a selection: effects in other tests are not listed, and their absence says nothing.

In the data set the test system is phenylephrine-constricted rat aorta. The conditions noted are these: with benomyl.

Regarding `O=[N+]([O-])OCC(CO[N+](=O)[O-])(CO[N+](=O)[O-])CO[N+](=O)[O-]`, the “effect of ALDH-2 inhibitor benomyl on vasodilator response” value is “reduced the vasodilator potency, but not the efficacy”.

Regarding `O=[N+]([O-])OCC(CO)(CO[N+](=O)[O-])CO[N+](=O)[O-]`, the “effect of ALDH-2 inhibitor benomyl on vasodilator response” value is given as “reduced the vasodilator potency, but not the efficacy”.
